Screening data from PubChem.
Shown are actives, neighbours in structure and some others; about 0.94% of the full set was active somewhere.
pCIP destab: compounds decreasing mouse p/CIP protein stability. Q05BA5. F442A p/CIP-EGFP cells, EGFP fluorescence, 16 h. decrease of EGFP signal, % at 10 µM. actives 0.01% (n = 290,000). AID 1984;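 active = EGFP signal decrease of at least 30% at 10 µM or well 3 SD below plate mean, unless failing retest; inactive = the rest, including hits failing retest or dose response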
Exocytosis inh: lytic granule exocytosis inhibition; inhibition, % at 10 µM; actives 0.66% (n = 360,000); TALL-104 LAMP-1 surface exposure, flow cytometry; cells stimulated with thapsigargin and PMA;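 active = inhibition above about 55%, limit read from the data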
PKA-R2B activ: PKA-R2B complex activation; P22694+P31323; PKA-R2B holoenzyme dissociation, Cy5-IP20 fluorescence polarization; R2B truncated from residue 108, S112A mutant; 0% DMSO only, 100% 113 µM cGMP; activation, % at 11.4 µM; actives 0.079% (n = 340,000); AID 504700;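 active = activation above a cutoff set at the mean over all compounds plus 3 SD, cut at about 18% in these data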;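 also: higher means more holoenzyme dissociation and a rise in polarization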
PKA-R1A activ: activates the PKA-R1A holoenzyme complex; P00514+P68181; PKA-R1A dissociation, Cy5-IP20 fluorescence polarization; scaled: DMSO 0%, 113 µM cGMP 100%; activation, % at 11.4 µM; actives 0.083% (n = 340,000); AID 504707;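 active = percent activation above the mean of all tested compounds plus 3 SD, cut at about 19% in these data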;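 also: higher means more PKAc released from R1A so a rise in polarization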
ABCB6 inh MLPCN: human ABCB6 transporter inhibition. actives 0.19% (n = 360,000). fluorescence ratio to DMSO, % at 10 µM. K562-ABCB6 porphyrin accumulation, flow cytometry, 1 h; hits give low values. AID 602162;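 active = fluorescence ratio to DMSO below 75%, the collection mean minus 3 SD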;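 also: signal is porphyrin accumulated inside mitochondria; 100% equals median channel fluorescence of DMSO control wells; lower ratio means ABCB6 inhibition with less porphyrin fluorescence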
Yeast UUG start: alters start codon recognition fidelity in yeast | S. cerevisiae UUG-firefly luciferase reporter, luminescence/redox ratio | activity score, % at 18.7 µM | hit rate 0.13% among 350,000 | AID 602363;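 active means replicate mean at a twofold rise or more, about +100% in these data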;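 further: firefly luciferase made from a UUG start codon reports start codon fidelity; reporter light over untreated wells divided by growth signal over untreated wells; some hits fall short of that in this replicate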
Exocytosis CP01: blocks lytic granule exocytosis | shares compounds with Exocytosis inh | TALL-104 cells, LAMP-1 externalization, flow cytometry; stimulated with PMA plus thapsigargin | inhibition, % at 10 µM | actives 11% (n = 1,500); in the data active = inhibition above about 60%;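 also: 0% = stimulated vehicle wells and 100% = unstimulated wells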
* = called active by the depositor; i = inactive; x = no result.

Start of the listing, in advance, four compounds:
1) CN(CC(O)COc1ccccc1F)C1CCCCC1 (stereo not drawn)
2) CCn1c2ccccc2c2cc(NC(=O)CSc3nnc(-c4cccc(C)c4)o3)ccc21
3) CCn1c2ccccc2c2cc(NC(=O)c3ccc(=O)oc3)ccc21
4) CCn1c2ccccc2c2cc(NC(=O)CSc3nnc(-c4ccccc4)o3)ccc21
assay / compound	1	2	3	4
pCIP destab	0.0	-9.2	-3.7	-7.8
Exocytosis inh	-1.6	28.0	77.5*	87.0*
PKA-R2B activ	3.8	-3.0	x	1.8
PKA-R1A activ	-9.5	-5.4	x	-2.5
ABCB6 inh MLPCN	98.0	99.0	116.0	104.0
Yeast UUG start	x	x	10.9	x
Exocytosis CP01	x	x	-4.2	-7.2

The listing, from the start:
1) CN(CC(O)COc1ccccc1F)C1CCCCC1 (stereo not drawn)
2) CCn1c2ccccc2c2cc(NC(=O)CSc3nnc(-c4cccc(C)c4)o3)ccc21
3) CCn1c2ccccc2c2cc(NC(=O)c3ccc(=O)oc3)ccc21
4) CCn1c2ccccc2c2cc(NC(=O)CSc3nnc(-c4ccccc4)o3)ccc21
5) Cc1ccnc(NC(=O)C2CCN(S(=O)(=O)c3ccc(C)c(C)c3)CC2)c1
6) O=C(/C=C/Sc1ccc(C(F)(F)F)cn1)c1ccccc1
assay / compound	1	2	3	4	5	6
pCIP destab	0.0	-9.2	-3.7	-7.8	x	-16.6
Exocytosis inh	-1.6	28.0	77.5*	87.0*	65.4*	64.0*
PKA-R2B activ	3.8	-3.0	x	1.8	7.7	-9.1
PKA-R1A activ	-9.5	-5.4	x	-2.5	-14.7	-9.3
ABCB6 inh MLPCN	98.0	99.0	116.0	104.0	101.0	97.0
Yeast UUG start	x	x	10.9	x	x	-11.8
Exocytosis CP01	x	x	-4.2	-7.2	-3.1	-3.0

7) C[C@H]1CN([C@@H](C)CO)C(=O)Cc2cc(NS(C)(=O)=O)ccc2O[C@H]1CN(C)S(=O)(=O)c1ccc(F)cc1
8) CN(C)CCCNC(=S)NCC(c1ccc(Cl)cc1Cl)c1c[nH]c2ccccc12 (stereo not drawn)
9) CCCC(=O)Nc1ccc2c(c1)C(=O)N(C)[C@@H]1CC[C@@H](CC(=O)NCCc3ccncc3)O[C@@H]1CO2
10) CN(C)c1ccc(C=Cc2nccc3ccccc23)cc1
11) CCN(CC)c1nc(C=Cc2ccc(N(C)C)cc2)c2nccnc2n1
12) CCN(CC)c1nc(C)nc2c1cnn2CCc1ccccc1
assay / compound	7	8	9	10	11	12
pCIP destab	x	3.1	x	x	x	0.0
Exocytosis inh	x	92.3*	x	-9.2	73.3*	71.1*
PKA-R2B activ	x	-7.3	x	x	-6.5	-10.7
PKA-R1A activ	x	0.3	x	x	3.5	2.5
ABCB6 inh MLPCN	x	96.0	x	i	i	95.0
Yeast UUG start	-2.6	-17.0	0.7	9.2	-21.0	-3.2
Exocytosis CP01	x	77.2*	x	x	9.7	-3.4

13) Cc1onc(-c2c(F)cccc2Cl)c1C(=O)Nc1sc2c(c1C(N)=O)CCC2
14) COc1ccc(OC)c(S(=O)(=O)Nc2ccc(O)c3ccccc23)c1
15) O=C(O)CSc1cc(NS(=O)(=O)c2cccc([N+](=O)[O-])c2)c2ccccc2c1O
16) CCc1ccc(S(=O)(=O)Nc2cc(SCC(=O)O)c(O)c3ccccc23)cc1
17) CCc1ccc(S(=O)(=O)Nc2ccc(O)c3ccccc23)cc1
18) COc1ccccc1CN(C)S(=O)(=O)c1cccs1
assay / compound	13	14	15	16	17	18
pCIP destab	-7.7	-14.4	-2.7	-19.4	-14.8	1.6
Exocytosis inh	56.2*	84.6*	75.1*	66.9*	7.9	15.4
PKA-R2B activ	1.4	-9.6	-0.7	-2.5	6.9	-3.4
PKA-R1A activ	-6.5	-8.0	-2.5	-2.6	-0.3	-4.0
ABCB6 inh MLPCN	97.0	114.0	103.0	99.0	95.0	98.0
Yeast UUG start	-21.0	-24.2	-25.4	x	-7.1	-6.1
Exocytosis CP01	6.6	-12.4	-0.9	-3.4	x	x

19) COc1ccc(C(C)=O)cc1CN(c1ccccc1OC)S(=O)(=O)c1cccs1
20) N#CC1=C(N)Oc2cc(N)ccc2C1c1cccc(Br)c1 (stereo not drawn)
21) CCOC(=O)c1nnc(-c2ccc(C)cc2)nc1Sc1cccc(Cl)c1
22) CCOC(=O)c1nnc(-c2ccccc2)nc1Sc1ccccc1Cl
23) C[C@H](CO)N1C[C@H](C)[C@@H](CN(C)S(=O)(=O)c2ccccc2)Oc2ncc(Br)cc2C1=O
24) CCc1ccccc1NC(=O)CNC(=O)c1ccc(-n2cncn2)c([N+](=O)[O-])c1
assay / compound	19	20	21	22	23	24
pCIP destab	-18.8	-5.1	-8.3	-7.4	x	x
Exocytosis inh	91.9*	71.8*	2.0	101.5*	x	66.4*
PKA-R2B activ	2.8	-6.6	9.4	5.8	x	-15.0
PKA-R1A activ	0.5	-11.8	15.5	-6.3	x	-6.1
ABCB6 inh MLPCN	102.0	103.0	98.0	97.0	x	100.0
Yeast UUG start	-10.0	1.8	x	-12.9	12.2	x
Exocytosis CP01	-5.7	-10.8	x	75.6*	x	-2.4

25) Cc1cccc(NC(=O)c2ccc(-n3cncn3)c([N+](=O)[O-])c2)c1
26) COc1cccc(-c2ccc3n(c2=O)C[C@H]2[C@H](CO)[C@@H](C(=O)N(C)C)N(C(=O)C4CCCC4)[C@@H]32)c1
27) C[C@H](NC(=O)C[C@H]1C[C@@H]2c3cc(NC(=O)C4CCC4)ccc3O[C@@H]2[C@H](CO)O1)c1ccccc1
28) Cc1nc2c(-c3ccc(F)cc3)c(C)nn2c(C)c1CCC(=O)Nc1ccccc1
29) CCN1CCN(c2ccc(NC(=O)CCc3c(C)nc4c(-c5ccc(F)cc5)c(C)nn4c3C)cc2)CC1
30) Cc1ccc2nc(N(CCCN(C)C)C(=O)c3cc(-c4cccs4)nc4ccccc34)sc2c1
assay / compound	25	26	27	28	29	30
pCIP destab	x	x	x	3.5	5.1	-4.6
Exocytosis inh	-9.1	x	x	-4.1	57.2*	71.8*
PKA-R2B activ	4.1	x	x	5.7	-1.8	-0.1
PKA-R1A activ	-7.0	x	x	2.5	6.3	-4.7
ABCB6 inh MLPCN	98.0	x	x	96.0	104.0	103.0
Yeast UUG start	-13.5	-2.8	8.7	-0.7	x	18.2
Exocytosis CP01	x	x	x	x	-10.2	40.2

31) CN(C)CCCN(C(=O)c1ccc(C(=O)c2ccccc2)cc1)c1nc2ccc(F)cc2s1
32) CCc1ccc2nc(N(CCCN(C)C)C(=O)c3ccc(S(=O)(=O)N4CCc5ccccc5C4)cc3)sc2c1
33) CN(C)CCCN(C(=O)c1nc2ccccc2s1)c1nc2ccc(F)cc2s1
34) CCOc1cccc2sc(N(CCCN(C)C)C(=O)c3ccc(S(=O)(=O)N4CCc5ccccc5C4)cc3)nc12
35) Clc1ncnc2c1oc1ccccc12
36) Cc1onc(-c2ccccc2)c1C(=O)OCCOc1ccccc1F
assay / compound	31	32	33	34	35	36
pCIP destab	-9.1	-15.0	x	-4.1	-5.3	-5.8
Exocytosis inh	58.6*	77.3*	-2.2	38.0	72.4*	80.4*
PKA-R2B activ	-14.6	-5.0	-4.1	-9.6	-3.5	-6.6
PKA-R1A activ	-4.5	-1.1	-6.4	1.2	-6.5	6.0
ABCB6 inh MLPCN	84.0	98.0	96.0	91.0	102.0	98.0
Yeast UUG start	-6.4	-5.7	-14.7	4.6	-25.0	1.6
Exocytosis CP01	9.9	86.8*	x	x	-3.8	-9.7

37) C[C@@H]1CCCCO[C@@H](CN(C)C(=O)Cc2ccccc2)[C@H](C)CN([C@H](C)CO)C(=O)c2cc(NS(=O)(=O)c3cn(C)cn3)ccc2O1
38) COCCn1c(SCCOc2ccccc2)nc2ccccc2c1=O
39) O=S(=O)(Nc1cccc(S(=O)(=O)N2CCCC2)c1)c1ccc(F)cc1
40) O=C(O)c1cccc(NC(=O)c2cccc(S(=O)(=O)N3CCCCC3)c2)c1
41) O=S(=O)(Nc1cccc(S(=O)(=O)N2CCCCCC2)c1)c1ccccc1
42) O=C(Nc1cccc(O)c1)c1cccc(S(=O)(=O)N2CCCCCC2)c1
43) CC(C)NC(=O)N(C)C[C@@H]1Oc2c(NC(=O)C3CCCCC3)cccc2C(=O)N([C@@H](C)CO)C[C@H]1C
44) OC(CNCC1CCCO1)Cn1c2ccc(Cl)cc2c2cc(Cl)ccc21 (stereo not drawn)
assay / compound	37	38	39	40	41	42	43	44
pCIP destab	x	6.3	x	-3.3	-4.1	8.2	x	-11.9
Exocytosis inh	x	67.0*	3.1	-1.0	73.8*	58.6*	x	54.3
PKA-R2B activ	x	-9.4	2.7	8.4	-1.8	0.3	x	-7.9
PKA-R1A activ	x	9.8	1.8	-1.4	-2.8	5.6	x	-7.3
ABCB6 inh MLPCN	x	94.0	100.0	101.0	96.0	97.0	x	92.0
Yeast UUG start	-9.6	-13.0	4.6	5.0	-3.9	-1.1	4.5	-10.4
Exocytosis CP01	x	14.1	x	x	-4.8	-12.7	x	x
